Results: US20040228889A1, “Use of N-arylmethylene ethylenediaminetriacetates, N-arylmethylene iminodiacetated or N,N'-diarylmethylene ethylenediamineacetates as doners of NO” (L'OREAL S.A., priority 2003, published 2004)

By UniProt entry, the sequences of proteins in these tests, tags left out.
UniProt P35228, whole entry: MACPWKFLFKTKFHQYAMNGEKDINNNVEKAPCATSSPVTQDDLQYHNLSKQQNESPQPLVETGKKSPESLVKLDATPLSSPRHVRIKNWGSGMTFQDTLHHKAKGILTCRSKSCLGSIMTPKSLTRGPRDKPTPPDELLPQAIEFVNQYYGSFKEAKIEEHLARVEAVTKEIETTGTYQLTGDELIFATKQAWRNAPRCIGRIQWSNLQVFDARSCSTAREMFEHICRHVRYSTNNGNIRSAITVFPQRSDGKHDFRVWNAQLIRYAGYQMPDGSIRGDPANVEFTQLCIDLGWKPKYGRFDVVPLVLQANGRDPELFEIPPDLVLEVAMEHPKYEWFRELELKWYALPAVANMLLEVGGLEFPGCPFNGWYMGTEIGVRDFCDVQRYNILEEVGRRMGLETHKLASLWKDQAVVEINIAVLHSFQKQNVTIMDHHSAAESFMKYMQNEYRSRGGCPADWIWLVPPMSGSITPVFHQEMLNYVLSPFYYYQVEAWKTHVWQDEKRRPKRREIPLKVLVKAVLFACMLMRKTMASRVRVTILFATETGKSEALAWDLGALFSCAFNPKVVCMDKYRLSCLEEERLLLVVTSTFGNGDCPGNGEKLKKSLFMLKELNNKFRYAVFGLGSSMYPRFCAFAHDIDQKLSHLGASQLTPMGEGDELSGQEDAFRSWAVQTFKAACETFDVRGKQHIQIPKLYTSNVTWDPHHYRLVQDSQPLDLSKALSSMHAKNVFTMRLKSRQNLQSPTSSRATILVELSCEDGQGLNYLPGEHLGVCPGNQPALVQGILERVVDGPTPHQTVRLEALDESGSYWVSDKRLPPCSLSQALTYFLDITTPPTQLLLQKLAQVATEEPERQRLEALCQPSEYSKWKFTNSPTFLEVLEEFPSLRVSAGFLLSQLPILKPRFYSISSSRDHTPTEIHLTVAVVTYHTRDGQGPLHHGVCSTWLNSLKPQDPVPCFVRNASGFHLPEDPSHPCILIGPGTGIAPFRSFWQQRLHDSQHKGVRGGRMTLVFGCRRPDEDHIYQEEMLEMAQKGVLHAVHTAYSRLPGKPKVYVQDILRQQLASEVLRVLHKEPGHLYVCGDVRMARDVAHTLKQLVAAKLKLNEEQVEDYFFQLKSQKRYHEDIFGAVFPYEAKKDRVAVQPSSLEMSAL

Target: T1, inducible NO synthase (NOS2) (Homo sapiens, UniProt P35228)
T1 construct: endogenous in cells; host or cells: normal human keratinocytes (primary culture), induced with interferon-gamma and interleukin 1-beta
Test: screening test of the modulation of induction of NOS2 by normal human keratinocytes (nitrite and nitrate measurement)
Assay type: cell-based
Conditions: control compound at 200 μm; cytokine-induced normal human keratinocytes
Protocol: The activity of N,N′-bis-(3,4,5-trimethoxybenzyl) ethylenediamine-diacetic acid on the inducible NO synthase was evaluated in the assay described by Heck et al. (J.B.C., vol. 267, No. 30, 21277-21280, 25 Oct. 1992), a screening test of the modulation of induction of NOS2 by normal human keratinocytes. The objective of this test is, briefly, to evaluate the concentration of nitrate and nitrite after stimulation of the NO-synthase 2.
The test is carried out on a culture of normal human keratinocytes, derived from samples taken. The induction of the inducible NO synthase (NOS2) was caused by the addition of a combination of several cytokines to the culture medium. The product tested was applied at three concentrations varying from 10 to 1000 μM.
The product tested was classed in one of the following two categories: inhibitor (I) or donor (D) of NO (nitric oxide) according to its capacity to diminish or increase, respectively, the quantity of nitrites and nitrates produced compared to the control signal […].
The following controls were introduced in the test: […]
In order to determine the activity of the test product the quantity of stable NO reaction products (nitrites and nitrates) is measured with the aid of the “nitric colorimetric assay” kit sold by the Boehringer company under catalogue number 1756.28. […]

Row | SMILES | % inhibition [%]
1 | CNC(=N)NCCC[C@H](N)C(=O)O [B, N^9-monomethyl-L-arginine (L form), reference compound] | 100
2 | CNC(=N)NCCC[C@@H](N)C(=O)O [C, N^9-monomethyl-L-arginine (D form), reference compound] | 0
